Measured values from PubChem BioAssay AID817 (Emory University Molecular Libraries Screening Center, 2007).
The entries are a selection whose mix differs from that of the whole data set. The source made the active and inactive calls.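 Rule for the calls: active = z-score above 3 at both the 24 hr and the 30 hr optical density reads; inactive = the rest, inconclusive results apart.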

test: restorers of sdo1-deficient yeast growth – S. cerevisiae, bone marrow failure model, primary screen (AID 817);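 note: z-score against mean and SD of all compound wells on the same plate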; conditions: S. cerevisiae sdo1-depleted JHY4D growth rescue, OD600 30 h; at 10 µM; hits give high values; pdr5 snq2 efflux-pump mutant strain

Compound | z-score
Fc1ccccc1NC1CCN(Cc2ccccc2)CC1 | inactive: -0.24
CCN1CCC(Nc2cccc(F)c2)CC1 | inactive: 1.68
CCOc1ncccc1C(=O)NCC1(N2CCOCC2)CCCCC1 | inactive: 0.5
CCC(CO)(C(=O)OC1CN2CCC1CC2)c1ccccc1 (stereo not drawn) | inactive: 0.56
N/C(=N\O)c1c(N)no[n+]1[O-] | inactive: 0.59
O=C(OC1CN2CCC1CC2)C1c2ccccc2C=Cc2ccccc21 (stereo not drawn) | inactive: -0.68
c1ccc(CN2CCC(Nc3ccccc3)CC2)cc1 | inactive: -0.52
N#CC1(Nc2ccccc2)CCN(CCc2ccccc2)CC1 | inactive: 0.52
CN1CCN(CCOC(=O)C(O)(c2ccccc2)c2ccccc2)CC1 | inactive: -0.26
O=C(NCC1(N2CCOCC2)CCCCC1)c1cc(=O)[nH]c2ccccc12 | inactive: 0.47
O=C(NCC1(N2CCOCC2)CCCCC1)c1cc2ccccc2o1 | inactive: -0.02
O=C(OC1CN2CCC1CC2)C1c2ccccc2Oc2ccccc21 (stereo not drawn) | inactive: 0.17
COc1ccc(NC2CCN(CCc3ccccc3)CC2)c(OC)c1 | inactive: 0.38
